This test has as its target Sodium-dependent dopamine transporter (Rattus norvegicus, UniProt P23977). Description: Binding affinity was evaluated using [3H]WIN-35428 binding to dopamine transporter (DAT) in rat caudate-putamen. It is filed as tissue-based. In a few lines:
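Caudate-putamen homogenate from male Sprague-Dawley rats, washed three times, in modified Krebs-HEPES buffer pH 7.4 on ice. Triplicates preincubated 5 min with compound (0.01 nM–100 μM), then 1.5 nM [3H]WIN 35,428 (final) for 1 h on ice.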

Amino acid sequences for entries named in this document (tags omitted).
UniProt P23977, whole entry: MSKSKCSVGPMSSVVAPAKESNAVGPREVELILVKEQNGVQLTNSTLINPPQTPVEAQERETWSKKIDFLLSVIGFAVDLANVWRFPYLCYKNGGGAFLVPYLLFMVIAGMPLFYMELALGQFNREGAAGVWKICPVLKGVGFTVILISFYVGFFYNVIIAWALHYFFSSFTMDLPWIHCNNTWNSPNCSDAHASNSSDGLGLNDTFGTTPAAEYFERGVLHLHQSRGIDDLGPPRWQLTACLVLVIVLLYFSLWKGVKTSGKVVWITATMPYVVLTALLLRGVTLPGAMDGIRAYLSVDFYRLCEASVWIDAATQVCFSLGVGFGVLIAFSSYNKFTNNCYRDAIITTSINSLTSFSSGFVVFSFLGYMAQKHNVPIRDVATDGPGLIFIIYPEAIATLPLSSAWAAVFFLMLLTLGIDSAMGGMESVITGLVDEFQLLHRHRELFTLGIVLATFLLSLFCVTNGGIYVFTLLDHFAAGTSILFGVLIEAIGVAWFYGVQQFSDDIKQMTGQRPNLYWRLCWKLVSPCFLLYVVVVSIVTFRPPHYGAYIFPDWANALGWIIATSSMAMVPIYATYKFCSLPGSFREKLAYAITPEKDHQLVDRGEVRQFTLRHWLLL

The text below walks through data of ChEMBL document CHEMBL1130315 (J Med Chem, 1997).

For orientation: IC50 means the concentration at which inhibition is half-maximal. Regarding `CC1CN(CCCn2c3ccccc3c3ccccc32)CC(C)N1CCCCCCN=C=S` (stereo unspecified), the IC50 came out at 86.7 nM.
